The numbers were not newly measured in patent US20040235712A1, “Coordination complexes having tethered therapeutic agents and/or targeting moieties, and methods of making and using the same” (priority 2003, published 2004), which cites them from elsewhere.

In this data set the test system is estrogen receptor-positive, ER (+), cells. The note with it: ER (+) cells exposed to estrogen; cited from earlier work.

With estrogen [reference compound], the “Sensitization of ER (+) cells towards cisplatin treatment” value was “factor of two”.
